Sequences of proteins named here, by UniProt entry; tags and fusion partners are left off.
UniProt Q00535, whole entry, species assumed: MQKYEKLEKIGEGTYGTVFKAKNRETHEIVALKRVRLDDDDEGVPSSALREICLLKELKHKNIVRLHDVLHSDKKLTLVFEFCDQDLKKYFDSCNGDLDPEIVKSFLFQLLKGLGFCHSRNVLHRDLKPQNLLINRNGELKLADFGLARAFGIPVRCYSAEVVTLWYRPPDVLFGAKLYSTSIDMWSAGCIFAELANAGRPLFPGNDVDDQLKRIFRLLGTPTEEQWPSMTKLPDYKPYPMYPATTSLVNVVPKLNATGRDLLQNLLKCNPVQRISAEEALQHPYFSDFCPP

In patent US6573044B1, “Methods of using chemical libraries to search for new kinase inhibitors” (The Regents of the University of California, priority 1997, dated 2003):

What was measured:
cdk5/p25 = cdk5/p25 (Homo sapiens, UniProt Q00535); assay: cdk5/p25 kinase inhibition; format: biochemical; conditions: Table 1, additional kinases

IC50 (cdk5/p25)	Compound	LC50 (lethal concentration) selectivity (colon cancer cell lines)
15 nM	COc1ccc(CNc2nc(NC(CO)C(C)C)nc3c2ncn3C(C)C)cc1 (centres unmarked) [NG-35]	
	2-(1R-isopropyl-2-hydroxyethyl)-6-(3-chloroanilino)-9-isopropylpurine [Purvalanol A]	selectively inhibited colon cancer cell lines at micromolar concentrations
